Earlier results in patent publication US4489052A, “Quantitative autoradiographic mapping of focal herpes simplex virus encephalitis using a radiolabeled antiviral drug” (priority 1982, dated 1984).

Details: rat; cited from earlier work

Cc1cn([C@@H]2O[C@H](CO)[C@@H](O)[C@@H]2F)c(=O)[nH]c1=O [FMAU]
excretion in urine: most FMAU is excreted unchanged in the urine
